# Measurements taken from PubChem BioAssay AID485281 (National Center for Advancing Translational Sciences (NCATS), 2010).
# By UniProt entry, the sequences of proteins in these tests, tags left out. Where a name states a change or a piece, a line headed by the entry shows the natural chain unless it says otherwise.
# UniProt P02791: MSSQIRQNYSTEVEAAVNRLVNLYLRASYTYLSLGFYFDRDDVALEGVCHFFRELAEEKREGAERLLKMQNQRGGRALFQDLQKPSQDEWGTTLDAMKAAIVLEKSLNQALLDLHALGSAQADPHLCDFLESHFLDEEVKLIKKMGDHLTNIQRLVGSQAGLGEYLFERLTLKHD
# Several values for one entry are separate records, joined by “and”; a condition that tells them apart may be missing. Equal entries are not always repeated. The list shows a part of the results, in another mix than the full data. Results filed as inconclusive are left out. Activity calls are given as the source filed them. Calls come from the whole dose curve; as a rule, active = well fitted inhibition curve with a large enough effect; inconclusive = small, poorly fitted or top-dose-only effect; inactive = no such curve, though single readings can be large or run the other way.
# Target: Ferritin light chain (Equus caballus) (UniProt P02791)
# Experiment: qHTS Assay for Identification of Novel General Anesthetics; note: nearly all actives have a fitted effect of over 20% in size
# Conditions: apoferritin/1-aminoanthracene competitive binding, fluorescence
# [1] = at 77.5 µM (top of the series) unless noted
# % is set by controls: 0 for no effect and ±100 for the full control effect.
smiles,measurement,setting,value
O=C(O)COc1ccc([As](=O)(O)O)cc1[N+](=O)[O-],"activity change, negative = displacement",[1],inactive: 10.7%
Nc1ccccc1[As](=O)(O)c1ccccc1,"activity change, negative = displacement",[1],inactive: -7.29%
O=P(Nc1nccs1)(Oc1ccccc1)Oc1ccccc1,"activity change, negative = displacement",[1],inactive: -3.19%
O=P(Nc1nccs1)(c1ccccc1)c1nc2ccccc2s1 (stereo not given),"activity change, negative = displacement",[1],inactive: -8.62%
CCOP1(=S)c2c(C)nn(CCC#N)c2N=C(c2ccccc2F)N1C (stereo not given),"activity change, negative = displacement",[1],inactive: 0.133%
CS(=O)(=O)c1cc([N+](=O)[O-])c2no[n+]([O-])c2c1,"activity change, negative = displacement",[1],inactive: -11.3%
CCOP1(=S)c2c(C)nn(CCC#N)c2N=C(c2ccc(F)cc2)N1C (stereo not given),"activity change, negative = displacement",[1],inactive: -12.7%
CN(C(=O)Cc1ccccc1)[C@@H]1CC[C@]2(CCCO2)C[C@H]1N1CCCC1,"activity change, negative = displacement",[1],inactive: -11.8%
O=[N+]([O-])c1ccc2c(c1)nnn2O,"activity change, negative = displacement",[1],inactive: -4.1%
NC(=O)Nc1ccc([As](=O)(O)O)cc1,"activity change, negative = displacement",at 29.3 µM (top of the series),inactive: 3.6%
same,"activity change, negative = displacement",at 77.5 µM (top of the series),inactive: -5.47%
Cc1cccc(OCC(=O)OC2CN3CCC2CC3)c1 (stereo not given),"activity change, negative = displacement",[1],inactive: -6.94%
O=[As](O)(c1cccc(O)c1)c1cccc(O)c1,"activity change, negative = displacement",[1],inactive: 0.166%
CN(C(=O)Cc1ccc(Cl)c(Cl)c1)[C@@H]1CC[C@]2(CCCO2)C[C@H]1N1CCCC1,"activity change, negative = displacement",[1],inactive: -10.2%
O=C(OC1CN2CCC1CC2)c1ccc(Cl)cc1 (stereo not given),"activity change, negative = displacement",[1],inactive: -6.43%
CS(=O)(=O)c1ccc(Cl)c(NC(=O)COC(=O)C(O)(c2ccccc2)c2ccccc2)c1,"activity change, negative = displacement",[1],inactive: -16.7%
O=[As](O)(O)c1cccnc1,"activity change, negative = displacement",[1],inactive: 1.16%
COc1cc(C(=O)NCC2(N3CCOCC3)CCCCC2)cc(Cl)c1OC(C)C,"activity change, negative = displacement",[1],inactive: -4.72%
CCOP(=O)(Nc1cccc2ccccc12)OCC,"activity change, negative = displacement",[1],inactive: -15.1%
COc1cc(C2NCCC3(OCCO3)C2(C)C)cc(OC)c1OC (stereo not given),"activity change, negative = displacement",[1],inactive: -2.26%
Cc1ccc(NCCc2c([N+](=O)[O-])cc([N+](=O)[O-])cc2[N+](=O)[O-])cc1,"activity change, negative = displacement",[1],inactive: -20.7%
Nc1cccc2c([As](=O)(O)O)cccc12,"activity change, negative = displacement",[1],inactive: 82.1%
CCCOP(=S)(Nc1nc(N)cc(=O)[nH]1)OCCC,"activity change, negative = displacement",[1],inactive: -0.44%
CC(C)(C)C(=O)NC(Sc1ncccn1)C(Cl)(Cl)Cl (stereo not given),"activity change, negative = displacement",[1],inactive: -7.88%
Clc1n[nH]nc1-c1nn[nH][15n]1,"activity change, negative = displacement",[1],inactive: -4.53%
CCOP(=O)(NC(=NC(C)c1ccccc1)NC(C)c1ccccc1)OCC (stereo not given),"activity change, negative = displacement",[1],inactive: -8.92%
CCC1=CC2Cc3nc4ccc(Cl)cc4c(N)c3C(C1)C2 (stereo not given),"activity change, negative = displacement",[1],inactive: -14.4%
O=P1(Nc2ccccn2)COc2ccccc2OC1,"activity change, negative = displacement",[1],inactive: 4.73%
CCOP(=O)(Nc1ccc(C)cn1)OCC,"activity change, negative = displacement",[1],inactive: -0.0129%
CN(C(=O)Cc1ccc(Cl)c(Cl)c1)[C@@H]1CCCC[C@H]1N1CCCC1,"activity change, negative = displacement",[1],inactive: -2.27% and inactive: -9.08%
CC(C)/C=N\N=C(\N)N[N+](=O)[O-],"activity change, negative = displacement",[1],inactive: -7.64%
O=[As](O)(c1ccccc1Br)c1ccccc1Br,"activity change, negative = displacement",[1],inactive: 9.97%
CN(C)C1(CNC(=O)c2ccc(S(C)(=O)=O)cc2)CCCCC1,"activity change, negative = displacement",[1],inactive: 0.559%
O=C(/C=C/c1ccccc1)OC1CN2CCC1CC2 (stereo not given),"activity change, negative = displacement",[1],inactive: -7.19%
Cc1ccc(C(=O)OC2CN3CCC2CC3)cc1 (stereo not given),"activity change, negative = displacement",[1],inactive: -10.8%
Cc1nn(-c2ccccc2)c2c1P(=O)(N1CCOCC1)N(C)C(c1ccccc1)=N2 (stereo not given),"activity change, negative = displacement",[1],inactive: -0.391%
Nc1cccc([As](=O)(O)c2ccccc2)c1,"activity change, negative = displacement",[1],inactive: 2.8%
Cc1ccc(OCC(=O)OC2CN3CCC2CC3)cc1 (stereo not given),"activity change, negative = displacement",[1],inactive: 3.11%
O=[As](O)(c1cccs1)c1cccs1,"activity change, negative = displacement",[1],inactive: -4.56%
O=P1(Nc2ccc(Br)cn2)COc2ccccc2OC1,"activity change, negative = displacement",[1],inactive: -15.6%
O=P1(Nc2ncccn2)COc2ccccc2OC1,"activity change, negative = displacement",[1],inactive: 5.75%
CN(C(=O)Cc1ccccc1)[C@H]1CC[C@@]2(CCCO2)C[C@@H]1N1CCCC1,"activity change, negative = displacement",[1],inactive: -2.78%
C[C@H]1OP(=O)(Oc2ccccc2)[C@H](O)[C@H](O)[C@H]1N=[N+]=[N-] (stereo not given in full),"activity change, negative = displacement",[1],inactive: 1.86%
O=P(Nc1nc2ccccc2s1)(c1ccccc1)c1ccccc1,"activity change, negative = displacement",[1],inactive: -0.919%
CN(C)C1(CNC(=O)c2ccc(Cl)c(S(N)(=O)=O)c2)CCCCC1,"activity change, negative = displacement",[1],inactive: -1.37%
O=P(Nc1ccccn1)(c1ccc(Br)cc1)c1ccc(Br)cc1,"activity change, negative = displacement",[1],inactive: -10.9%
O=C(OC1CN2CCC1CC2)c1cccc(Cl)c1 (stereo not given),"activity change, negative = displacement",[1],inactive: 2.02%
C(Cc1nn[nH]n1)Cc1nn[nH]n1,"activity change, negative = displacement",[1],inactive: 37.4%
Nc1ccc([As](=O)(O)c2ccc([N+](=O)[O-])cc2)cc1,"activity change, negative = displacement",[1],inactive: 0.844%
O=[As](O)(c1ccccc1)c1ccc(O)cc1,"activity change, negative = displacement",[1],inactive: 2.05%
CC(=O)NC(SC(=S)N(C)C)C(Cl)(Cl)Cl (stereo not given),"activity change, negative = displacement",[1],inactive: -2.52%
O=[N+]([O-])c1ncn(CCn2cnc([N+](=O)[O-])n2)n1,"activity change, negative = displacement",[1],inactive: -7.99%
O=[N+]([O-])c1ccc(O)c(/C=N/Nc2ccc([N+](=O)[O-])cc2[N+](=O)[O-])c1,"activity change, negative = displacement",[1],inactive: -11.3%
c1nnnn1CCn1cnnn1,"activity change, negative = displacement",[1],inactive: -5.16%
CCC(C)(OOC(C)(C)C)OOC(C)(C)C,"activity change, negative = displacement",[1],inactive: -4.83%
